{"source": "patent US20130251632A1", "about": "“APOPTOSIS PET IMAGING AGENTS” (GE HEALTHCARE LIMITED, priority 2010, published 2013)", "experiment": "Affinity for phosphatidylethanolamine, Biacore 3000 with L1 chip and captured liposomes", "assay_type": "binding", "settings": "POPE/POPC liposomes (20% PE)", "source_text": "A Biacore 3000 (GE Healthcare, Uppsala) was equipped with an L1 chip. Liposomes made of POPE/POPC (20% PE) were applied for the affinity study using the capture technique recommended by the manufacturer. Each run consisted of activation of the chip surface, immobilization of liposomes, binding of peptide and wash off of both liposomes and peptide (regeneration). Similar applications can be found in Frostell-Karlsson et al [Pharm. Sciences, V.94 (1), (2005)]. Thorough washing of needle, tubing and liquid handling system with running buffer was performed after each cycle.\nBIACORE software: The BIACORE control software including all method instructions was applied. A method with commands was also written in the BIACORE Method Definition Language (MDL) to have full control over pre-programmed instructions. BIACORE evaluation software was applied for analysing the sensorgrams."}
{"substance": "duramycin", "values": [{"measurement": "kd", "result": "~8e-05", "unit": "s⁻¹"}, {"measurement": "Kd", "setting": "Table 2", "result": "~5", "unit": "nM"}]}
